From the OPERA property sets (Mansouri et al. 2018)

Settings: experimental values, compiled

Compound	logP
O=[N+]([O-])OCCCCCCCCO[N+](=O)[O-]	4.4
CCCCCCC(CO[N+](=O)[O-])O[N+](=O)[O-] (configuration not stated)	4.63
